# Cyclic peptide permeability, from CycPeptMPDB

PAMPA measures passive passage through an artificial lipid membrane. Values are log10 P with P in cm/s, so -5 is more permeable than -7.

structure (SMILES),PAMPA (log10 cm/s)
CC(C)C[C@@H]1C(=O)N(C)[C@@H](CC(C)C)C(=O)N2CCC[C@@H]2C(=O)N[C@H](CC(C)C)C(=O)N[C@@H](Cc2ccccc2)C(=O)N2CCC[C@@H]2C(=O)N(C)[C@@H](C)C(=O)N1C,-5.40
CC(C)C[C@@H]1C(=O)N[C@@H](Cc2ccccc2)C(=O)N2CCC[C@H]2C(=O)N[C@@H](C)C(=O)N[C@H](CC(C)C)C(=O)N(Cc2ccccc2)CC(=O)N2CCC[C@@H]2C(=O)N1C,-6.32
CC(C)C[C@@H]1C(=O)N[C@@H](Cc2ccccc2)CC(=O)N2CCC[C@@H]2C(=O)N(C)[C@@H](CC(C)C)C(=O)N[C@@H](Cc2ccccc2)C(=O)N[C@H](C)C(=O)N1C,-5.30
CC(C)C[C@@H]1C(=O)N(C)[C@H](CC(C)C)C(=O)N2CCC[C@H]2C(=O)N[C@H](CC(C)C)C(=O)N[C@@H](Cc2ccccc2)C(=O)N2CCC[C@H]2C(=O)N[C@@H](C)C(=O)N1C,-5.70
CC(C)C[C@@H]1NC(=O)[C@H]2CCCN2C(=O)[C@@H](CC(C)C)N(C)C(=O)[C@H](CC(C)C)NC(=O)[C@@H](C)N(C)C(=O)[C@@H]2CCCN2C(=O)[C@H](Cc2ccccc2)NC1=O,-5.46
CCCN1CC(=O)N[C@H](CC(C)C)C(=O)N(C)[C@@H](CC(C)C)C(=O)N2CCC[C@H]2C(=O)N[C@@H](CC(C)C)C(=O)N[C@@H](Cc2ccccc2)C(=O)N2CCC[C@@H]2C1=O,-5.56
CC(C)C[C@@H]1NC(=O)[C@H](C)N(C)C(=O)[C@H]2CCCN2C(=O)[C@H](Cc2ccccc2)NC(=O)[C@@H](CC(C)C)N(C)C(=O)[C@H]2CCCN2C(=O)[C@@H](CC(C)C)NC1=O,-5.58
CC(C)C[C@@H]1NC(=O)C[C@H](Cc2ccccc2)NC(=O)[C@H]2CCCN2C(=O)[C@H](Cc2ccccc2)NC(=O)[C@H](CC(C)C)NC(=O)[C@H]2CCCN2C(=O)C[C@H](Cc2ccccc2)NC1=O,-6.14
CC(C)C[C@@H]1NC(=O)[C@@H]2CCCN2C(=O)[C@@H](CC(C)C)NC(=O)[C@@H](CC(C)C)NC(=O)[C@H](C)NC(=O)[C@H](Cc2ccccc2)NC1=O,-6.45
CC(C)C[C@@H]1NC(=O)[C@@H](C)NC(=O)[C@H](Cc2ccccc2)NC(=O)[C@H](CC(C)C)N(C)C(=O)[C@@H]2CCCN2C(=O)[C@H](CC(C)C)N(C)C1=O,-6.02
CC(C)C[C@@H]1NC(=O)[C@@H](C)NC(=O)[C@H](Cc2ccccc2)NC(=O)CN(Cc2ccccc2)C(=O)[C@@H]2CCCN2C(=O)[C@@H](CC(C)C)NC1=O,-6.32
CCCN1CC(=O)N(C)[C@@H](CC(C)C)C(=O)N[C@H](CC(C)C)C(=O)N2CCC[C@H]2C(=O)N(C)[C@H](CC(C)C)C(=O)N[C@@H](Cc2ccccc2)C(=O)N2CCC[C@@H]2C1=O,-5.19
CC(C)C[C@@H]1NC(=O)[C@H]2CCCN2C(=O)C[C@H](Cc2ccccc2)NC(=O)[C@H](CC(C)C)N(C)C(=O)[C@@H](C)N(C)C(=O)[C@@H]2CCCN2C(=O)[C@H](Cc2ccccc2)NC1=O,-6.36
CC(C)C[C@H]1NC(=O)[C@H](CC(C)C)N(C)C(=O)[C@H](C)N(C)C(=O)[C@H]2CCCN2C(=O)[C@H](Cc2ccccc2)NC(=O)[C@H](CC(C)C)N(C)C(=O)[C@@H]2CCCN2C1=O,-5.03

Excerpt, the final 2 entries:

structure (SMILES),PAMPA (log10 cm/s)
CC(C)C[C@@H]1NC(=O)[C@H]2CCCN2C(=O)C[C@H](Cc2ccccc2)NC(=O)[C@H](CC(C)C)N(C)C(=O)[C@@H](C)N(C)C(=O)[C@@H]2CCCN2C(=O)[C@H](Cc2ccccc2)NC1=O,-6.36
CC(C)C[C@H]1NC(=O)[C@H](CC(C)C)N(C)C(=O)[C@H](C)N(C)C(=O)[C@H]2CCCN2C(=O)[C@H](Cc2ccccc2)NC(=O)[C@H](CC(C)C)N(C)C(=O)[C@@H]2CCCN2C1=O,-5.03

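Conditions beyond the assay type are not listed; see the original paper. Other peptides of the study may be missing here. Peptides that the database sets to -10, its floor, are left out.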

Values of Townsend et al. 2020, doi:10.26434/chemrxiv.13335941.v1, as listed in CycPeptMPDB.